Legend:
[1] = molecular target: T1, ORL-1 receptor (Homo sapiens, UniProt P41146); test: Agonist activity: stimulation of [35S]-GTPγS binding; format: biochemical; details: compound at 100 nM
[2] = molecular target: T1, ORL-1 receptor; test: Nociceptin binding assay ([125I][Tyr14]nociceptin, CHO cell membranes); details: CHO cell membrane preparation expressing the ORL-1 receptor

Sequences of proteins named here, by UniProt entry; tags and fusion partners are left off. A change or cut given only in a name is not applied to a line headed by its entry.
UniProt P41146: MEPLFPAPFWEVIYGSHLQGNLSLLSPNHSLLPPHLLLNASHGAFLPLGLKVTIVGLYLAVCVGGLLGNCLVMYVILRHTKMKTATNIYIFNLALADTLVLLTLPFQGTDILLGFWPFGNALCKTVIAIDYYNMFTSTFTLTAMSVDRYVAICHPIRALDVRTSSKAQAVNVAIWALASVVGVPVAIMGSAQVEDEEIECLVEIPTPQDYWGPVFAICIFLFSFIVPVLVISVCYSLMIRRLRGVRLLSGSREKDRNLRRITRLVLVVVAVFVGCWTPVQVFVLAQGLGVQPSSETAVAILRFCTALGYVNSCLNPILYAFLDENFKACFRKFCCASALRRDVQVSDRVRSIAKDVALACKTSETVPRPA

SMILES	% Stimulation of [35S]-GTPγS binding to human ORL-1 receptor @ 100 nM [1]	Ki [2]
CCCCCC(c1ccccc1)N1CCC(O)(c2ccccc2CN)CC1 (stereo not shown)	59%	
NC1(c2ccccc2)CCN(C(c2ccccc2)c2ccccc2)CC1		200 nM
c1ccc(C(c2ccccc2)N2CCC3(CC2)OCc2ccccc23)cc1		77 nM
CCCCC(c1ccc(F)cc1)N1CCC2(CC1)C(=O)NCN2c1ccccc1 (stereo not shown)	107%	
OC1(c2ccccc2)CC2CCC(C1)N2C(c1ccccc1)c1ccccc1F (stereo not shown)	120%	
O=C1N(CCN2CCC[C@@H]2CO)CN(c2ccccc2)C12CCN(C(c1ccccc1Cl)c1ccccc1Cl)CC2	77%	
COCCn1c(=O)n(C2CCN(C(c3ccccc3Cl)c3ccccc3Cl)CC2)c2ccccc21	15%	
OC1(c2ccc(Br)cc2)CCN(C(c2ccccc2)c2ccccc2)CC1		60 nM
OC1(c2ccccc2)CC2CCC(C1)N2C(c1ccccc1Br)c1ccccc1Br (stereo not shown)	70%	
NCc1ccccc1C1(O)CCN(Cc2ccccc2Cl)CC1	43%	
NCc1ccccc1C1(O)CCN(C(c2ccccc2Cl)c2ccccc2Cl)CC1	71%	0.6 nM
NC(=O)Cn1c(=O)n(C2CCN(C(c3ccccc3)c3ccccc3)CC2)c2ccccc21	43%	

Reference: patent US6716846B2, “High affinity ligands for nociceptin receptor ORL-1” (Schering Corporation, priority 1998, dated 2004)
